The values below come from patent US8435576B2, “Use of cocoa polyphenols for treating a prostate hyperplasia, a specific cocoa extract and applications” (Barry Callebaut AG, priority 2005, dated 2013).

Molecules are shown by their SMILES.

This data set is described as follows: Body weight during 14-day oral treatment before heat stroke. Format: in vivo, Wistar rats. Here is the method: Eight male rats of Wistar/Han IGS strain (Charles River Laboratories, 69-St-Germain sur l'Arbresle—France) weighing 300 to 320 g are used. On receipt, the rats are housed, four to a cage, in 48×27×20 cm polycarbonate cages (U.A.R., 91-Epinay-Sur-Orge, France) in a controlled environment (50±5% humidity; temperature 22±1° C.; lighting from 20:00 h to 08:00 h, i.e. an inverted lightness/darkness cycle: 12 h/12 h).
The rats are weighed each day for the fourteen days of the treatment in order to determine their body weight change.

Take `Cc1c(C)c2c(c(C)c1O)CC[C@@](C)(CCC[C@H](C)CCC[C@H](C)CCCC(C)C)O2` [Vitamin E, α-tocopherol]: the “Body weight” value was found to be 344.3 ± 15.6 g (Day 9), 348.7 ± 17.8 g (Day 10), 357.6 ± 19.4 g (Day 13) and 361.0 ± 18.4 g (Day 14).
